Results as given in patent US20150017739A1.

Key:
[1] = target: alpha synuclein (αS) oligomers (αS oligomer sample after 6 h incubation; mostly high molecular weight (HMW) αS oligomers) (Homo sapiens (Human)) (UniProt P37840); assay: cell-based or functional assay
[2] = target: αS oligomers prepared after 0 h incubation (Homo sapiens (Human)) (UniProt P37840); assay: cell-based or functional assay
[3] = target: alpha synuclein (αS) monomers (Homo sapiens (Human)) (UniProt P37840); assay: SEC, PG65 + αS monomer sample at 35 µM each
[4] = target: alpha synuclein (αS) oligomers (αS oligomer sample after 6 h incubation; mostly high molecular weight (HMW) αS oligomers) (Homo sapiens (Human)) (UniProt P37840); assay: FIAsH fluorescence (RFC) titration, PG65 at 0.5 µM against monomer-equivalent αS concentration

“PG65 (engineered alpha synuclein variant; first αS linker region NVGG replaced with the tetracysteine motif CCPGCC) (designed binder)” gave a quantum yield of FIAsH: PG65 bound to HMW αS oligomers against PG65 without αS [1] of 9 fold, a ratio of RFCs: sample with αS monomers, oligomers and fibrils at 2.5 µM each to αS oligomers only at 2.5 µM [1] of 1 and a αS concentration at which the αS oligomer-dependent RFC leveled off [1] of 2.5 µM. The αS oligomer concentration detected by RFC [1] was 1.5 µM, the RFC against αS oligomers formed after 6 h at the same αS concentration [2] was 2 fold lower and the ratio of the major peak area of the mixture sample to that of the simple sum of individual proteins [3] was 1.01. It also gave a Kd [4] of 1000 nM.
